Test results taken from patent US7122668B2, “Platinum complexes and their use in therapy” (priority 2002, dated 2006).

Assay: In vivo toxicity
Parameters: species or system BALB/C mice
Conditions: 20 mg/kg

Trans-[PtCl2(4-picoline)(piperazine)].HCl [Complex 13]
toxicity (animal weight and survival): non-toxic
